21 compounds from patent US20260384428A1, “NOVEL PRMT5 INHIBITOR AND USE THEREOF” (published 2026) can be followed below.

Data set [1] concerns HCT-116 MTAP(−/−) deficient cells. Kind of data set: Inhibitory activity on the proliferation of HCT-116 MTAP (−/−) deficient cells (Cell-Titer Glo). To be noted: read-out: IC50 HCT-116 MTAP(−/−) deficient cells, 8 days, 37 °C, 0.1% DMSO. The text has this: Test Case 1: Inhibitory Activity Test of Compounds on the Proliferation of HCT-116 MTAP (−/−) Deleted Cells
Materials and cells: HCT-116 MTAP (−/−) deficient cells were purchased from Botron Healthcare (China); RPMI-1640 medium, fetal bovine serum and penicillin-streptomycin were purchased from Thermo Fisher (United States); 384-well plates were purchased from PerkinElmer (United States); and Cell-Titer Glo kits were purchased from Promega (United States).
Cell culture: HCT116 MTAP (−/−) deleted cells were cultured in RPMI 1640 medium containing 10% fetal bovine serum+1% penicillin-streptomycin at 37 °C and 5% CO2. Cells in the logarithmic growth phase may be used for the test.
(§1) Detection of inhibitory activity on cell proliferation: The Cell-Titer Glo kit was used to detect the proliferation inhibitory activity of the compounds on HCT-116 MTAP (−/−) deficient cells. The cell concentration was adjusted, rendering that cells were inoculated into a 384-well plate at 40 μL per well and incubated overnight at 37 °C and 5% CO2. 40 nL of the compound was added into each well to reach a final concentration of 0-10,000 nM (starting concentration: 10,000 nM, 3-fold dilution, 10 points), and the cell plate with 0.1% DMSO content was incubated at 37 °C and 5% CO2 for 8 days. 40 μL of Cell-Titer Glo reagent was added to detect cell activity.

A further data set has as its system HCT-116 wild-type cells. Kind of data set: Inhibitory activity on HCT-116 wild-type cell proliferation (Cell-Titer Glo). The note with it: read-out: IC50 HCT-116 wild-type cells, 8 days, 37 °C, 0.1% DMSO. The procedure:
Test case 2: Inhibitory activity test of compounds on HCT-116 wild-type cell proliferation Materials and cells: HCT-116 wild-type cells were purchased from Botron Healthcare (China); RPMI-1640 medium, fetal bovine serum and penicillin-streptomycin were purchased from Thermo Fisher (United States); 384-well plates were purchased from PerkinElmer (United States); and Cell-Titer Glo kits were purchased from Promega (United States).
Cell culture: HCT-116 wild-type cells were cultured in RPMI-1640 medium containing 10% fetal bovine serum+1% penicillin-streptomycin at 37 °C and 5% CO2. Cells in the logarithmic growth phase may be used for the test.
as §1, with “of” for “of inhibitory activity on”, “proliferation activity:” for “proliferation:”, “wild-type cell proliferation.” for “MTAP (−/−) deficient cells.”, “2-fold” for “3-fold”

Data set [2] in a line: Pharmacokinetic test in mice. To be noted: ICR male mice; for AUClast / T1/2: plasma. How it is done:
ICR male mice N=3/group; original source: Zhejiang Vital River Laboratory Animal Technology Co., Ltd.
Single oral (PO) administration to ICR mice: The compound was weighed and dissolved with DMSO, a certain volume of polyethylene glycol 400 and water for injection (WFI) were added, and then a small volume of 1 mol/L hydrochloric acid solution was added to adjust to a clear solution. 3 mice were intragastrically administered after fasting overnight at a dosage of 10 mg/kg.
Single intravenous (IV) administration to ICR mice: The compound was weighed and dissolved with DMSO, a certain volume of polyethylene glycol 400 and WFI were added, and then a small volume of 1 mol/L hydrochloric acid solution was added to adjust to a clear solution. 3 mice were administered via tail vein injection after fasting overnight at a dosage of 3 mg/kg.
Blood was collected from the dorsalis pedis vein at approximately 30 μL/time point, anticoagulated with dipotassium ethylenediaminetetraacetate and kept on ice until plasma was separated by centrifugation (4000 g/min; 5 min; 4 °C) within 1 h. The blood sampling time points were 0.0833 (intravenous injection), 0.25, 0.5, 1, 2, 4, 6, 8, and 24 h. The samples were stored in a refrigerator at −20 °C.
30 μL of plasma sample (10 μL sample+20 μL blank plasma sample) and 200 μL ice-cold ACN containing internal standard were mixed, and then drawn into vortex for 30 s and centrifuged at 4000 g/min for 20 min. 100 μL of the supernatant was transferred to a 96-well plate, and then 200 μL of ultrapure water was added. After drawing into vortex for 30 s, 5 μL or 10 μL was injected into LC-MS/MS for analysis.

pIC50: −log10 of the molar value.

In the case of `C[C@H](c1ccc(C(F)(F)F)nn1)N(C(=O)c1cc2c(cc1F)nc(N)c1cncn12)C1CC1` (single isomer, unassigned), the figures for the pIC50 (in data set [1]; with HCT-116 wild-type cells) were 7.49 and 5.09, respectively. Moreover, the AUClast in data set [2] (IV (3 mg/kg)) came out at 5699 ng·h/mL; in data set [2] (PO (10 mg/kg), fasted), 31071 ng·h/mL. Moreover, the T1/2 in data set [2] (IV (3 mg/kg)) turned out to be 1.7 h; in data set [2] (PO (10 mg/kg), fasted), 2 h. The “Bioavailability (F, %)” value in data set [2] (PO (10 mg/kg) vs IV (3 mg/kg)) was 161%.
On to `Nc1nc2cc(C(F)(F)F)c(C(=O)N(Cc3ccc(C(F)(F)F)cn3)C3CC3)cc2n2cncc12`, for which the pIC50 is 6.25 in data set [1] and less than 5.00 with HCT-116 wild-type cells.
In the same order, the values of `C[C@H](c1ncccn1)N(Cc1ccc(C(F)(F)F)cn1)C(=O)c1cc2c(cc1F)nc(N)c1cncn12` are 7.95 and 6.97.
The like results for `[2H]C([2H])([2H])N(C(=O)c1ccc2nc(N)c3cncn3c2c1)C(C)c1ccc(C(F)(F)F)cn1` (centres unmarked) were, in that order, 7.28 and 5.36.
In the same order, the values of `CC(c1ncccn1)N(Cc1ccc(C(F)(F)F)cn1)C(=O)c1ccc2nc(N)c3cncn3c2c1` (centres unmarked) are 7.81 and 6.84.
With `CC(c1ccc(C(F)(F)F)nn1)N(C)C(=O)c1cc2c(cc1F)nc(N)c1cncn12` (centres unmarked), the pIC50 in data set [1] was 7.46; in the data set on HCT-116 wild-type cells, 5.33.
The like results for `CC(c1ncc(C(F)(F)F)cc1F)N(C(=O)c1ccc2nc(N)c3cncn3c2c1)C1CC1` (centres unmarked) were, in that order, 6.64 and less than 5.00.
On to `Nc1nc2cnc(C(=O)N(Cc3ccc(C(F)(F)F)cn3)CC3CC3)cc2n2cncc12`, for which the pIC50 in data set [1] was 7.85; in the data set on HCT-116 wild-type cells, 6.02.
`CC(c1ccc(OC(F)(F)F)cc1)N(C(=O)c1ccc2nc(N)c3cncn3c2c1)C1CC1` (centres unmarked): the values for the pIC50 (in data set [1]; in the data set on HCT-116 wild-type cells) were 7.32 and less than 5.00, respectively.
The like results for `CC(c1ccc(S(F)(F)(F)(F)F)cc1)N(C(=O)c1cc2c(cc1F)nc(N)c1cncn12)C1CC1` (centres unmarked) were, in that order, 7.88 and 6.05.
For the compound `C[C@@H](c1ccc(C(F)(F)F)cn1)N(C(=O)c1cc2c(cc1F)nc(N)c1cncn12)C1CC1`, the pIC50 in data set [1] was 6.20; in the data set on HCT-116 wild-type cells, less than 5.00.
The like results for “(S)-4-amino-7-fluoro-N-methyl-N-(1-(4-(trifluoromethyl)phenyl)ethyl)imidazo[1,5-a]quinoxaline-8-formamide” were, in that order, 5.71 and less than 5.00.
Regarding `Nc1nc2cc(F)c(C(=O)N(Cc3ccc(C(F)(F)F)cn3)C3CC3)cc2n2cncc12`, the pIC50 in data set [1] is 8.01; in the data set with HCT-116 wild-type cells it was 5.83.
The like results for “(R)-4-amino-7-fluoro-N-methyl-N-(1-(4-(trifluoromethyl)phenyl)ethyl)imidazo[1,5-a]quinoxaline-8-formamide” were, in that order, 8.06 and 5.97.
Turning to `C[C@H](c1ccc(C(F)(F)F)cn1)N(C)C(=O)c1ccc2nc(N)c3cncn3c2c1`, the pIC50 in data set [1] was 7.68; with HCT-116 wild-type cells, 5.33.
Regarding `[2H]C([2H])([2H])N(C(=O)c1cc2c(cc1F)nc(N)c1cncn12)[C@@H](C)c1ccc(C(F)(F)F)cn1`, the pIC50 in data set [1] was less than 5.52; in the data set on HCT-116 wild-type cells it was less than 5.00.
The like results for `Cn1cc(N(Cc2ccc(C(F)(F)F)cn2)C(=O)c2ccc3nc(N)c4cncn4c3c2)cn1` were, in that order, 7.45 and 5.54.
The like results for `C[C@@H](c1ccc(S(F)(F)(F)(F)F)cc1)N(C(=O)c1ccc2nc(N)c3cncn3c2c1)C1CC1` were, in that order, 5.60 and less than 5.00.
As for “4-amino-N-cyclopropyl-7-fluoro-N-(6-(trifluoromethyl)pyridazine-3-methyl)imidazo[1,5-a]quinoxaline-8-formamide”, the pIC50 in data set [1] is 7.03; with HCT-116 wild-type cells, less than 5.00.
The like results for `CC(c1ccccc1)N(C)C(=O)c1cc2c(cn1)nc(N)c1cncn12` (centres unmarked) were, in that order, less than 5.52 and less than 5.00.
The like results for `C[C@H](c1ccc(C(F)(F)F)cn1)N(C(=O)c1cc2c(cc1F)nc(N)c1cncn12)C1CC1` were, in that order, 8.11 and 6.08.
